# Test results published in patent US20050164331A1, “Method and device for detecting toxic material in water using microbial fuel cell” (priority 2002, published 2005).
# System: electrochemically active bacteria in the sludge
# Details: microbial fuel cell with active sludge; fuel glucose and glutamic acid (CODcr 200 ppm); standard solution added successively at 0.01-0.05 ppm; current measured at 60 seconds interval
substance,measurement,value
mercury [Hg],concentration at which the constantly generated current showed a sharp drop,0.03 ppm
